{"source": "patent US11579152B2", "about": "“Engineered hERG channel proteins, vesicles and methods of identifying small molecule pharmacological agents” (priority 2016, dated 2023)", "biological_target": "hERG channel (Homo sapiens, UniProt Q12809, DEL141-380/DEL871-1005)"}
{"substance": "Amoxillin", "values": [{"measurement": "Percentage inhibition (%) at 100 μM", "result": "−2.6 ± 9.1", "unit": "%"}]}
